From ChEMBL document CHEMBL1157120, “The identification of indacaterol as an ultralong-acting inhaled beta2-adrenoceptor agonist” (J Med Chem, 2010)

Protein sequences, listed by entry. Tags and fused reporters are not part of them.
UniProt Q8K4Z4, whole entry: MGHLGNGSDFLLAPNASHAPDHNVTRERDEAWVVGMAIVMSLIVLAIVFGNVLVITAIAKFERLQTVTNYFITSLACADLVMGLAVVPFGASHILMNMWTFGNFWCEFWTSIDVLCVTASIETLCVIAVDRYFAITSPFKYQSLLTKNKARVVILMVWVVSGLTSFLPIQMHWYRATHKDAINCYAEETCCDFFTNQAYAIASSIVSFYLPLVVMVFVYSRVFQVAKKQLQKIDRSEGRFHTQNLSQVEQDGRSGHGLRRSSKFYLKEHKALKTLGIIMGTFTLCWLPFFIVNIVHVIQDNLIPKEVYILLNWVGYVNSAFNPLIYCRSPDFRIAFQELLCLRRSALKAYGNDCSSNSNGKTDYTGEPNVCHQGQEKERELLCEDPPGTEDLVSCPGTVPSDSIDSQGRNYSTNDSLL

Columns and labels:
[1] = organism: Cavia porcellus; experiment: Inhibition of serotonin-induced bronchoconstriction in guinea pig assessed as intrinsic duration of bronchodilatory activity at ED80
[2] = target: Beta-2 adrenergic receptor (Cavia porcellus, UniProt Q8K4Z4)

| Structure (SMILES) | Time [1] [h] | IC50 [2] [nM] |
| --- | --- | --- |
| COc1ccc(CC(C)NCC(O)c2ccc(O)c(NC=O)c2)cc1 (mixture of isomers) [FORMOTEROL] | 4 | – |
| CC(C)(C)NCC(O)c1ccc(O)c(CO)c1 (configuration not stated) [ALBUTEROL] | – | 17 |
